Literature values in article PMC3285612.

Experiments:
trypsin (Bos taurus) = trypsin (Bos taurus) (UniProt P00760); details: cited from earlier work
[1] = molecular target: chymotrypsin (Bos taurus) (UniProt P00766); details: cited from earlier work

BPTI (from UniProt P00974)
Ki (trypsin (Bos taurus)): 0.06 pM
Ki [1]: 9 nM
